The text below walks through data of patent publication US20250270584A1, “Gene editing to provide insect resistance in crops” (The Regents of the University of California, priority 2022, published 2025).

For assay [1], the target named is 6His-CaM7 (Arabidopsis thaliana), P59220. In words: ITC at 25 C, peptide titrated into 6His-CaM7, 1 mM Ca2+.
The target is the same in assay [2]. In words: ITC at 25 C, peptide titrated into 6His-CaM7, Ca2+ chelated with 2 mM EGTA.
Assay [3] shares this target. Kind of assay: ITC at 25 C, peptide titrated into 6His-CaM7.

On to DQQQNHDSSSMRSTRLQRFLSL (modifications not checked) [CBD peptide], for which the Kd (commonly a measure of binding affinity in units of concentration) in assay [1] turned out to be 7.58 µM; in assay [2], 279 µM.
DQQQNHDSTRLQRFLSL (modifications not checked) [mutated CBD peptide] gave a Kd in assay [3] of 71.3 µM.
